This assay deals with vasopressin V1a receptor (UniProt P37288). Put plainly: FRET or BRET.

Amino acid sequences for entries named in this document (tags omitted).
UniProt P37288, whole entry: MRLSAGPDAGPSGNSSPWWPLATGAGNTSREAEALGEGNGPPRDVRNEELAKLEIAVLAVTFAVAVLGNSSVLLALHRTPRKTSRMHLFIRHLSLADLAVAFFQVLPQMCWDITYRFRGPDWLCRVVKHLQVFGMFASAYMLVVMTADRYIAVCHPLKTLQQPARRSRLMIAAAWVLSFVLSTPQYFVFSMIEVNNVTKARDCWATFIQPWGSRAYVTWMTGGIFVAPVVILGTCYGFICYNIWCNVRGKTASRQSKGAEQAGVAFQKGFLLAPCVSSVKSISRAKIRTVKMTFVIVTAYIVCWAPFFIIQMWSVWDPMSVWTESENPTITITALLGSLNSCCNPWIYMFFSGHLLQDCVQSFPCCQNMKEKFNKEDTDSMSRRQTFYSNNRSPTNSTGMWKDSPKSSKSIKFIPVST

Substance vasopressin (peptide) displayed an IC50 of 2.1 nM. This counts as single-digit nanomolar.

In general, IC50 refers to the point on the concentration scale where inhibition reaches its midpoint.

The record behind these values is paper PMC3506176 (Nature chemical biology, 2010).
